{"source": "PubChem BioAssay AID504577", "about": "(NMMLSC, 2011)", "note": "The list shows a part of the results, in another mix than the full data. Active and inactive are the calls of the source. No stated cut-off is given here; in the data, active means response mostly above about 7.3% (no sharp cut-off); inactive means mostly below about 5.4%.", "data": [{"experiment": "yeast vacuolar ATPase proton transport modulators – pHLuorin cytosolic pH fluorescence, primary screen (AID 504577)", "conditions": "S. cerevisiae, at 10 µM, active compounds read high", "values": [{"compound": "CN(C)CCOC(=O)C(O)(c1ccccc1)C1CCCCC1", "note": "(stereo unspecified)", "response": "inactive: -6.91%"}]}]}
